We go through four compounds from patent US20260384396A1, “PROCESS FOR THE PREPARATION OF PIROCTONE, INCLUDING CRYSTALLIZATION OR PRECIPITATION, PIROCTONE PARTICLES AND PROCESS FOR THE PREPARATION OF PIROCTONE OLAMINE” (published 2026).

Data set [1] in a line: Solubility / dissolution time of piroctone in surfactant-containing formulation (visual check until clear). The conditions noted are these: 0.5 g piroctone dispersed in approx. 10 g water (demineralized), approx. 45 g Genapol LRO Liquid added, approx. 300 rpm; until solution is clear. As to the method: The solubility of the piroctone of Examples 1 to 4 was tested as follows:
0.5 g Piroctone are dispersed in approx. 10 g water (demineralized). In a next step approx.
45 g Genapol LRO Liquid (which is a surfactant) is added and the solution stirred at approx. 300 rpm. The samples are checked visually, and the time measured until the solution is clear and all solid dissolved.

Data set [2] in a line: Particle size distribution (PSD) of piroctone, Malvern Mastersizer 3000. The conditions noted are these: volume distribution; average of two measurements; obscuration 0.5% to 1.5%. As to the method: In relation to the particle size distribution measures used herein, d50, d(50) or D50, the median, is defined as the diameter where half of the population lies below this value. Similarly, 10 percent of the population lies below the d10, d(10) or D10 diameter and 90 percent of the population lies below the d90, d(90) or D90 diameter. If not stated otherwise, the d90, d10, d90 values are based on a volume distribution.
The particle size distribution (PSD) was determined as follows: • PSD instrument: Malvern Mastersizer 3000.
Sample preparation and PSD measurement: Desired quantity of about 1 g is put into sample hopper unit and measurement is started with obscuration between 0.5% to 1.5%.
PSD measurements: Every sample is analyzed twice. The values given in the above Table are averages of the two measurements.

The structures appear in SMILES notation.

Regarding `Cc1cc(CC(C)CC(C)(C)C)n(O)c(=O)c1` (stereo not shown) [Example 1], in data set [1], the Dissolution time is 30 to 35 min. In data set [2], this compound showed a d10 of 13.6 μm, a d50 of 57.9 μm and a d90 of 129 μm.

Take `Cc1cc(CC(C)CC(C)(C)C)n(O)c(=O)c1` (stereo not shown) [Example 2]: the Dissolution time in data set [1] is 30 to 35 min. In data set [2], this compound had a d10 of 12 μm, a d50 of 49.6 μm and a d90 of 120 μm.

In data set [1], `Cc1cc(CC(C)CC(C)(C)C)n(O)c(=O)c1` (stereo not shown) [Example 3] displayed a Dissolution time of 20 to 25 min. Also, in data set [2], the d10 is listed as 8.6 μm, the d50 is recorded as 33.7 μm and the d90 is on record as 82.5 μm.

For `Cc1cc(CC(C)CC(C)(C)C)n(O)c(=O)c1` (stereo not shown) [Example 4], the Dissolution time in data set [1] lay in the range of 20 to 25 min. In data set [2], this compound yielded a d10 of 7.2 μm, a d50 of 30 μm and a d90 of 76.9 μm.
